The list shows a part of the results, in another mix than the full data. Some tests of the compounds listed are not included; inactive here does not mean inactive elsewhere. Active and inactive are the calls of the source. Calls come from the whole dose curve; as a rule, active = well fitted inhibition curve with a large enough effect; inconclusive = small, poorly fitted or top-dose-only effect; inactive = no such curve, though single readings can be large or run the other way.

Protein sequences, listed by entry. Tags and fused reporters are not part of them.
UniProt P38398, whole entry: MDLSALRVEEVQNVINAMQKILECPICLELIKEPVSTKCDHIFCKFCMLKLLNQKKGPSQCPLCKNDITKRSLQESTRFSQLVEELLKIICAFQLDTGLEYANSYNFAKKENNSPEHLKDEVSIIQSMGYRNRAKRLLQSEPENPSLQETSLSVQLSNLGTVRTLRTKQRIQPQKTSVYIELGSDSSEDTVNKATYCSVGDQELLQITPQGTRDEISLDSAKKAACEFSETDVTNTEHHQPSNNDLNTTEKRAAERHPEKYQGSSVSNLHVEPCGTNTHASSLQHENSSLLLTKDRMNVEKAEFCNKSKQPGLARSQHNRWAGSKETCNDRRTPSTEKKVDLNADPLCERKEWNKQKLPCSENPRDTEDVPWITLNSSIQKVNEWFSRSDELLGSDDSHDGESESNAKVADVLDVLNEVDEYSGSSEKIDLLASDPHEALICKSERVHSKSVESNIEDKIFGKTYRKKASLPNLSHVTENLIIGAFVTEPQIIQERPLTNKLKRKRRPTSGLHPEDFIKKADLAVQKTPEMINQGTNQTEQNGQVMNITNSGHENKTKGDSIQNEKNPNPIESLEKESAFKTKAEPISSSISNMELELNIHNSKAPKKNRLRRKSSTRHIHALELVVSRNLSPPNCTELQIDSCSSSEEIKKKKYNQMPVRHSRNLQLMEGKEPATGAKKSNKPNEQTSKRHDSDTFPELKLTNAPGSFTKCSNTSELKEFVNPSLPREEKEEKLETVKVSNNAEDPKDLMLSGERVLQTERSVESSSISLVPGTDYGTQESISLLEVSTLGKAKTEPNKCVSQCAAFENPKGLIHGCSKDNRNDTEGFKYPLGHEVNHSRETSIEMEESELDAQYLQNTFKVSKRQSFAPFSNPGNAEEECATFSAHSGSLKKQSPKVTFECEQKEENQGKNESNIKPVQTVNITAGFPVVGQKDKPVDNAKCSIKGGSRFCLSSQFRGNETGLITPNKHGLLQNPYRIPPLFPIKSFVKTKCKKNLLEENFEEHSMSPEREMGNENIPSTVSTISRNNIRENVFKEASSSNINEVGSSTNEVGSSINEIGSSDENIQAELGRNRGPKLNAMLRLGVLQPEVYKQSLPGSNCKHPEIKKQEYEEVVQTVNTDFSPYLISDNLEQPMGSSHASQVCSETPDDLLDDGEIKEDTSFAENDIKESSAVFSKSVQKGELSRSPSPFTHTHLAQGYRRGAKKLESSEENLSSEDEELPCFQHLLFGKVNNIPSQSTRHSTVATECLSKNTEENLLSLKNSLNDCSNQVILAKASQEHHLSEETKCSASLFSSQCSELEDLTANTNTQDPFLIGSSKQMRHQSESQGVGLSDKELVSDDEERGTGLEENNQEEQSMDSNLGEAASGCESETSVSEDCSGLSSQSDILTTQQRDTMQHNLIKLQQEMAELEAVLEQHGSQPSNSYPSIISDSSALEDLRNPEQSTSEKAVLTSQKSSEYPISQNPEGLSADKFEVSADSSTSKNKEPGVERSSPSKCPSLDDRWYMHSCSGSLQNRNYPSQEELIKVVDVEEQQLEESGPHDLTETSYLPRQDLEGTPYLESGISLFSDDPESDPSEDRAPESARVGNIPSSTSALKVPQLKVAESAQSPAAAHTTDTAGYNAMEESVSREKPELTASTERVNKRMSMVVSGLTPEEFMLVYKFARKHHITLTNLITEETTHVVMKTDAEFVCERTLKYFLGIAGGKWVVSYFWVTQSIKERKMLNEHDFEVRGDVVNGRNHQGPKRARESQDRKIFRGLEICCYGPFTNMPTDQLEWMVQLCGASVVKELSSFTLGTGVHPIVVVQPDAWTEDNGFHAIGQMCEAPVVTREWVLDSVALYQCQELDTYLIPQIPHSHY

The test has as its target Breast cancer type 1 susceptibility protein (Homo sapiens) (UniProt P38398). As to the kind of experiment: qHTS Assay for Inhibitors of BRCT-Phosphoprotein Interaction (Green Fluorophore). Conditions: BRCA1 BRCT-phosphopeptide binding, green fluorescence polarization; at 15.4 µM (top of the series) unless noted. The protocol: NIH Molecular Libraries Screening Centers Network [MLSCN]
NIH Chemical Genomics Center [NCGC]
PI Name: Natarajan, Amarnath; University of Texas
A complex of BRCT (C-terminal portion of BRCA1, MW ~35 kDa, His-tagged) and fluorescently labeled pBACH1 phosphorylated 10 aa peptide fragment of BACH1, a helicase implicated in DNA repair, is incubated with library members. Inhibitors of BRCT-pBACH1 binding are detected by a decrease in the fluorescence polarization (FP) of the fluorophore. In order to minimize the effect of fluorescence artifacts and to increase the overall robustness of the screen, the compound library members were incubated in separate reactions with fluorescein labeled probe-protein complexes. Protein and labeled probes were supplied by Dr. Amarnath Natarajan, Department of Pharmacology and Toxicology, University of Texas Medical Branch Galveston, TX.
Assay Buffer: 16mM Na2HPO4, 4 mM NaH2PO4, 150 mM NaCl, 1 mM EDTA, 1 mM DTT, 0.02% NaN3, and 0.01% Tween 20 at pH 7.3.
100 nM labeled decapeptide/250 nM protein in columns 1, 2, 5 - 48. Titration of unlabeled decapeptide control (from 10 mM, then 1:2 dilution in duplicate) pin-transferred to column 2, rows 1 to 16. Column 1 is neutral.
Three uL of reagents were dispensed to 1536-well Greiner black solid-bottom plates. Compounds and controls (23 nL) were transferred
via Kalypsys PinTool. The plates were incubated for 12 min at room temperature, and then read on ViewLux (Perkin-Elmer) High throughput CCD imager using FITC for the fluorescein-labeled decapeptide probe polarization filter sets. During dispense, reagent bottles were kept submerged into 4 deg C water bath and all liquid lines were covered with aluminum foil to minimize probe and protein degradation. All screening operations were performed on a Kalypsys robotic system (Kalypsys, Inc., San Diego, CA) containing one RX-130 and two RX-90 anthropomorphic robotic arms. The timing and order of assay plates passing through the screening system were adjusted such that each compound library plate was assayed against the fluorescein- and rhodamine-labeled assay systems at immediately adjacent time points.
In general terms: In qHTS, concentration-response curves come from the screen itself.
`C=C(C)C#C[C@@](O)(C(=O)OC1CCN(C)CC1)c1ccccc1`: the activity change, negative = inhibition is inactive: -0.0105%.

With `CN1CCC[C@H](OC(=O)[C@](O)(c2ccccc2)C2CCCC2)C1`, the activity change, negative = inhibition is inactive: -0.0772%. `CN1CC[C@H](OC(=O)[C@](O)(c2ccccc2)C2CCCC2)C1`: the activity change, negative = inhibition is inactive: -0.276%. As for `O=C(OC1CN2CCC1CC2)C(CO)(c1ccccc1)c1ccccc1` (stereo not given), the figure is inactive: 1.61% [at 76.9 µM]; as for `CN(C)c1cccc(C(=O)NCC2(N(C)C)CCCCC2)c1`, inactive: -1.37% [at 76.9 µM].

The values above are taken from PubChem BioAssay AID875 (National Center for Advancing Translational Sciences (NCATS), 2007).
